Source: patent US7615356B2, “Ion channel assay methods” (Vertex Pharmaceuticals (San Diego) LLC, priority 2000, dated 2009)
pEC50: −log10 of the molar value.

By UniProt entry, the sequences of proteins in these tests, tags left out.
UniProt P04775, whole entry, looked up: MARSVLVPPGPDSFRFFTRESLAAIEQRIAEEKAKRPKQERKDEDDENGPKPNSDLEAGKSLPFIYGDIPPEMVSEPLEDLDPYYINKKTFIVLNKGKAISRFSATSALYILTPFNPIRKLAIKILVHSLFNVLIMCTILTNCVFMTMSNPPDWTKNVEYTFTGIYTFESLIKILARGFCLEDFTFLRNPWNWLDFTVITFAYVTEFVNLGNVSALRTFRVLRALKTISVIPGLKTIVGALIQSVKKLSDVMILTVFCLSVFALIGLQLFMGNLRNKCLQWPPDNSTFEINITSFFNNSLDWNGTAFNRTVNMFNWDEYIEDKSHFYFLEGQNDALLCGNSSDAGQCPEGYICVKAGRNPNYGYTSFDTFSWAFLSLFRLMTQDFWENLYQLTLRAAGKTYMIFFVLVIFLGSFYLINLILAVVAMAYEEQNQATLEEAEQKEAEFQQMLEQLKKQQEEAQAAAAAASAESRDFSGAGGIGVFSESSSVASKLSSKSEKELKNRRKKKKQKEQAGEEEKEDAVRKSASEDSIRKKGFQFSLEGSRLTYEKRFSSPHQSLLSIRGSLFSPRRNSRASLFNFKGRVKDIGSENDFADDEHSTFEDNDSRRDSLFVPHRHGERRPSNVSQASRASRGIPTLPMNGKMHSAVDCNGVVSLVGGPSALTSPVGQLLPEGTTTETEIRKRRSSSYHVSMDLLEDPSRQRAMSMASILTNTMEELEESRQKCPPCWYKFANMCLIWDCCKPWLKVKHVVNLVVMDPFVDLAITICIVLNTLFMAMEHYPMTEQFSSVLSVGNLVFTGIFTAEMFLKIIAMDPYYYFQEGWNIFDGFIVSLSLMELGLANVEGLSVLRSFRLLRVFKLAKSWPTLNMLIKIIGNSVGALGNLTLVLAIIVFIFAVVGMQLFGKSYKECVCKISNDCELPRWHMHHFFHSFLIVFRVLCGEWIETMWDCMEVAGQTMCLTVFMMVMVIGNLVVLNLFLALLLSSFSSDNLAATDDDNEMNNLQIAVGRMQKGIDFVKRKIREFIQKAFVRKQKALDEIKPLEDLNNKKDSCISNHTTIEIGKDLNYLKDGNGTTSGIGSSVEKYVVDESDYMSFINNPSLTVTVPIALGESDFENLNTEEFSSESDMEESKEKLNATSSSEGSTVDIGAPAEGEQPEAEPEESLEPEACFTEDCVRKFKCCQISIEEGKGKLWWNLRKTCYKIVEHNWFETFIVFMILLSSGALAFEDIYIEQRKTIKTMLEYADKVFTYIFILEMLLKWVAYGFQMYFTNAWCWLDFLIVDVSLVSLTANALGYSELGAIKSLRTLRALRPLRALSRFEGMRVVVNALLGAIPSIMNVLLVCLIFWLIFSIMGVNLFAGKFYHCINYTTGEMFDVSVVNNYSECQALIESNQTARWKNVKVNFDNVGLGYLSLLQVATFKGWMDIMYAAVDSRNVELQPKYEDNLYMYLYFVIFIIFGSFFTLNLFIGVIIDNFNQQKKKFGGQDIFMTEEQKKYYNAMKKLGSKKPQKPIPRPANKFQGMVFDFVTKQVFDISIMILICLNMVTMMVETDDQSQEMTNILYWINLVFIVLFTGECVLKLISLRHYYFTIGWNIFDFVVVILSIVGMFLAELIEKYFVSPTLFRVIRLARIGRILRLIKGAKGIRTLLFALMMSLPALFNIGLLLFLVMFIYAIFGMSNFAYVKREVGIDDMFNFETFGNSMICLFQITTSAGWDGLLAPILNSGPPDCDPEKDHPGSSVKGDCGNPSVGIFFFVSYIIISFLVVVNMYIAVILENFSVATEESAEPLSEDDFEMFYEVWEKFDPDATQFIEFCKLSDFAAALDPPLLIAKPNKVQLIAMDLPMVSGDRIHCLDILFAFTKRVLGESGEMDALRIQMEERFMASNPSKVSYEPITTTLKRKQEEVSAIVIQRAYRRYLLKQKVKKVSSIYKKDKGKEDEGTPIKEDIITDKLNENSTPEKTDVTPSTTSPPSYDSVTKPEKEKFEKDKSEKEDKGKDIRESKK
UniProt A0A8C2MK62, entry or part of it: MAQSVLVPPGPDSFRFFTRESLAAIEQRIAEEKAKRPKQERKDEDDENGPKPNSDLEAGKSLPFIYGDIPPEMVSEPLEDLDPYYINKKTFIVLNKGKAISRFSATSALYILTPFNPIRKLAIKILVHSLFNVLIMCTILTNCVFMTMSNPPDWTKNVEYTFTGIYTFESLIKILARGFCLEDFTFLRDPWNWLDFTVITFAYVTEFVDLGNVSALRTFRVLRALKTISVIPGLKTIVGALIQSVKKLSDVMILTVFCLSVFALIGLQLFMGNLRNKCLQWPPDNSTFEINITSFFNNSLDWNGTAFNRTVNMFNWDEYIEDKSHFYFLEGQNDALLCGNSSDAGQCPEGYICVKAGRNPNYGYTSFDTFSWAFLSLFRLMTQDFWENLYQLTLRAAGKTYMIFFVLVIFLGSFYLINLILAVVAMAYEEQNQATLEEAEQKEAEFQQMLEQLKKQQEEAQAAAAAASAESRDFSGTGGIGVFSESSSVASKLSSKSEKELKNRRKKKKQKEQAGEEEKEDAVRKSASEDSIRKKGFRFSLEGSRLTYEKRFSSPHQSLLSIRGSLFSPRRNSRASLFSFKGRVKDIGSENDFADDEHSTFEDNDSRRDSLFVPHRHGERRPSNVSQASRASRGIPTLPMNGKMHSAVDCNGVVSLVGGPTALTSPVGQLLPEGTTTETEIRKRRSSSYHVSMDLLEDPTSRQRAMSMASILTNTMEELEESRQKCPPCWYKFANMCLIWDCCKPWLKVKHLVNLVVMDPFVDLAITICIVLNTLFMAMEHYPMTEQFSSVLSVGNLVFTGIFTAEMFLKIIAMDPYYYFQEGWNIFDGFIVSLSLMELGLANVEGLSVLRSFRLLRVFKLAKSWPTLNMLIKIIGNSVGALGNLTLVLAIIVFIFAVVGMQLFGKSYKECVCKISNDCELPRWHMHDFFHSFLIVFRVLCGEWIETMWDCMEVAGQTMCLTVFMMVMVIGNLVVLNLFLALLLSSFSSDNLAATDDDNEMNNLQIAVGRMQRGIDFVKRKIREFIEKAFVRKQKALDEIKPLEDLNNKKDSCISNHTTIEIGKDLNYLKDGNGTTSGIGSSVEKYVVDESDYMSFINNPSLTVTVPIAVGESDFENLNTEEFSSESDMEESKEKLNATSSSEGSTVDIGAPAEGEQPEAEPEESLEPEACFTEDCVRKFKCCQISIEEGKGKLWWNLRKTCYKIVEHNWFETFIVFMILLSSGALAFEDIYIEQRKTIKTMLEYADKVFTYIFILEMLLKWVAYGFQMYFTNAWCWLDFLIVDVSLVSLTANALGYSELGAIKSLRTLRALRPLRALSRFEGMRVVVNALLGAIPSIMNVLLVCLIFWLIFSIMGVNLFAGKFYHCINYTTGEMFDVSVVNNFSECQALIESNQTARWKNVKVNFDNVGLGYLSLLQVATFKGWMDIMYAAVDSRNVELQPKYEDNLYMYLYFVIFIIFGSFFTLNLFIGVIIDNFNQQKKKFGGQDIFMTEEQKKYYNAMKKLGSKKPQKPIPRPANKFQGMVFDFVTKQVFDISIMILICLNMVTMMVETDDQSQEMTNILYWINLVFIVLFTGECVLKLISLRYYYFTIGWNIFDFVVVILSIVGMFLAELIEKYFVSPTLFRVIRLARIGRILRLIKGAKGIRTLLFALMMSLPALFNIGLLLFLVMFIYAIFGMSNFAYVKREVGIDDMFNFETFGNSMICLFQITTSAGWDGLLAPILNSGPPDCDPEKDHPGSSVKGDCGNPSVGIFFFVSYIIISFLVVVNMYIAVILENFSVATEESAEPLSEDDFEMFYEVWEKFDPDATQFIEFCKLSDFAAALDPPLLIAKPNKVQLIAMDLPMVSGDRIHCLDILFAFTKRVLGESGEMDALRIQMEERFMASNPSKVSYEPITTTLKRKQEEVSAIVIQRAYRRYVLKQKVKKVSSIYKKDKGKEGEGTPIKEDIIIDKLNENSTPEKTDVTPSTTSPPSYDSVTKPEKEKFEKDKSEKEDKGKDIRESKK

Key:
[1] = target: rat brain type IIa sodium channel (Rattus norvegicus, UniProt P04775); conditions: read-out: reported value (EC50); cited from earlier work
[2] = target: endogenous NaV channels of Chinese Hamster Ovary cells (Nav 1.2a) (Cricetulus griseus, UniProt A0A8C2MK62); test: Use-dependent block, repetitive electrical stimulation at 1 Hz, CHO cells; format: cell-based

SMILES | pEC50 [1] | Hill coeff. @ 1st peak [2] | Hill coeff. @ 20th peak [2] | UDI (1 Hz), ratio of IC50(1st response) over IC50(20th response) [2] | use-dependent block of endogenous NaV channels [2]
NC1=N[C@H](O)[C@H]2[C@H]3O[C@]4(O)O[C@@H]([C@@H](O)[C@@]2(N1)[C@@H]4O)[C@]3(O)CO [TTX, tetrodotoxin] | 8.10 | – | – | – | –
COc1ccc(CCN2CCC(Nc3nc4ccccc4n3Cc3ccc(F)cc3)CC2)cc1 [astemizole] | – | 2.67 | 1.79 | 2.25 | decreased ratio of last peak response over first peak response
